The values below come from BindingDB's records for doi:10.1016/j.bmcl.2018.01.030 (Osaka University, 2018).

A short description of the experiment: Binding affinity to 14-3-3zeta (unknown origin) assessed as stabilization of protein-protein interaction between 14-3-3zeta and fluorescein-labeled phosphopeptide by measuring Kd of FAM-KRSHpSV-COOH at 40 uM by fluorescence polarization assay (Rvb = 470 +/- 20 nM). (In general: Polarisation of emitted light reports the rotation of a fluorescent probe.)

In general, Kd refers to the concentration at which binding is half-saturated. For the compound `COC[C@@]1(OC)CC[C@@H]2/C1=C\[C@@]1(C)CCC(C(C)C)=C1[C@@H](O[C@H]1O[C@@H]3COC(C)(C)O[C@H]3[C@H](O)[C@H]1O)[C@H](O)[C@@H]2C`, the dissociation constant Kd was 360 nM.

As for `COC[C@H]1O[C@H](O[C@@H]2C3=C(C(C)C)CC[C@]3(C)/C=C3\[C@@H](CC[C@]3(O)COC)[C@@H](C)[C@H]2O)[C@H](O)[C@H]2O[C@H]3O[C@]21O[C@@]3(C)[C@@H]1CO1`, the equilibrium dissociation constant (Kd) was found to be 9 nM.

As to `COC[C@H]1CC[C@@H]2/C1=C\[C@@]1(C)CCC(C(C)C)=C1[C@@H](O[C@H]1O[C@@H]3COC(C)(C)O[C@H]3[C@H](O)[C@H]1O)[C@H](O)[C@@H]2C`, the Kd worked out at 18 nM.
